This test addresses T1, NDM-1 S262G (Klebsiella pneumoniae, UniProt C7C422, S249G).
T1 construct: made in house; host or cells: E. coli TOP10 (crude extract)
Kind of test: IC50, inhibition of cephalothin hydrolysis. To be noted: crude enzyme extract, 100 µM cephalothin, 3 min pre-incubation; read-out: IC50 against NDM-1 S262G. The format is biochemical.

By IC50 is commonly meant the concentration that gives 50% inhibition.

Structures are written as SMILES.

Take `O=C(O)c1c(F)ccc2c1OB(O)[C@@H]1C[C@H]21` [xeruborbactam]: the IC50 is greater than 200 µM.

The record behind these values is publication PMC12217461, “The emerging concern of IMP variants being resistant to the only IMP-type metallo-β-lactamase inhibitor, xeruborbactam” (Antimicrobial Agents and Chemotherapy, 2025).
